Reference: patent US9855265B2, “Methods for treating cancer with TrkA receptor tyrosine kinase antagonists” (VM Oncology LLC, priority 2014, dated 2018)

System: PANC-1 subcutaneous human pancreatic cancer xenografts
Assay: PANC-1 Subcutaneous Human Pancreatic Cancer Xenograft Mouse Model
Conditions: Day 14; gemcitabine 10 mg/kg (alone or with Compound-12, see label)

Structure (SMILES): Nc1ccn([C@@H]2O[C@H](CO)[C@@H](O)C2(F)F)c(=O)n1 [Gemcitabine, gemcitabine]
- Tumor volume (Mean ± SEM): 174 ± 9 mm^3
